The target of this experiment is T1, h5-HT1AR (Homo sapiens, UniProt P08908).
T1 construct: purchased Perkin Elmer, Inc. (Waltham, MA, USA)
The experiment is described as follows: Radioligand binding, [3H]8-OH-DPAT displacement. As to the method:
Binding assays were performed as described previously. Briefly, membrane preparations expressing h5-HT1AR, h5-HT2AR or hSERT (see Supplementary Material) were incubated with radiolabeled selective ligands 0.4 nM [^3H]8-OH-DPAT, 1 nM [^3H]ketanserin or 3 nM [^3H]imipramine, respectively. The drugs were diluted in the corresponding binding buffer and tested at increasing concentrations in duplicate. Binding reactions were performed in tubes containing the drug dilutions; 25 μl of the corresponding radioligand; and the membranes (10 μg and 5 μg/500 μL for 5-HT1AR and 5-HT2AR, respectively, and 15 μg/100 μL for hSERT), all diluted in binding buffer. […] Incubation was performed for 1 h at 27 °C for 5-HT1A/2AR and 22 °C for hSERT, according to the manufacturer’s protocol (Perkin Elmer, Inc., Waltham, MA, USA) and previous studies - saturation and kinetic experiments, respectively. The binding reactions were stopped by rapid filtration through GF/B glass microfiber filters pre-soaked with 0.5% polyethyleneimine and washing with ice-cold wash buffer. The filters were placed into vials and scintillation cocktail was added. The trapped radioactivity was quantified. Specific binding was defined as the difference between total binding (binding buffer alone) and non-specific binding. Experiments were conducted per duplicate for at least three independent experiments.

Sequences of proteins named here, by UniProt entry; tags and fusion partners are left off.
UniProt P08908, whole entry: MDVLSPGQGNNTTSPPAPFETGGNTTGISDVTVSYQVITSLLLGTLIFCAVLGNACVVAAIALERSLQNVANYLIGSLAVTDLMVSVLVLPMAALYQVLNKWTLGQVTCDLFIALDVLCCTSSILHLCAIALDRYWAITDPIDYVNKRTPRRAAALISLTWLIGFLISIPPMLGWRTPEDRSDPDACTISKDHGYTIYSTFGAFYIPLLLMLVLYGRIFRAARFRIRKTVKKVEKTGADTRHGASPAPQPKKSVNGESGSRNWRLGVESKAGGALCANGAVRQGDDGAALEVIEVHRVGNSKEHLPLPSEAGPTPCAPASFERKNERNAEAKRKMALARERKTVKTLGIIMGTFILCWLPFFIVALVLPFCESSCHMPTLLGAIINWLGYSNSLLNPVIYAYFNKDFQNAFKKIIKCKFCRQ

`COc1ccc2[nH]cc(CCN(C)C)c2c1` [5-MeO-DMT, 5-methoxy-N,N-dimethyltryptamine] returned a Ki of 2.57 ± 0.09 nM.

For orientation: Ki means the dissociation constant of the complex between target and ligand, obtained from inhibition or displacement. Read a low Ki as tighter binding.

(Values after PMC11412900 (Molecular Psychiatry, 2024).)
